Experimental data taken from patent publication US4329353A (priority 1981, dated 1982).

Columns and labels:
[1] = system: apomorphine-induced emesis; assay: apomorphine test in dogs (APO-dog); type: in vivo, beagle dogs; details: apomorphine 0.31 mg/kg s.c. 1 hour after compound; for ED50 (APO)dog: Table 1; for ED50 (APO)-dog: Table 2, s.c. per method
[2] = system: apomorphine-induced agitation and stereotypic chewing; assay: apomorphine (APO) test in rats (combined APO-TRY-NOR test); details: s.c., apomorphine hydrochloride 1.25 mg/kg i.v. 30 min after compound
[3] = system: tryptamine-induced bilateral tonic seizures; assay: tryptamine (TRY) test in rats (combined APO-TRY-NOR test); details: rat, s.c., tryptamine 40 mg/kg i.v. 90 min after compound; for ED50 (TRY): Table 1
[4] = Table 1, dose protecting 50% of animals

SMILES | ED50 (APO)dog ([1]; s.c.) [mg/kg] | ED50 (APO)-rat [2, 4] [mg/kg] | ED50 (APO)-dog [1] [mg/kg] | ED50 -(TRY) ([3]; Table 2) [mg/kg] | also measured
N#CC1(c2ccccc2)CCC(N2CCC3(CC2)C(=O)NCN3c2ccccc2)CC1 (centres unmarked) | 0.001 | < 10 |  |  | 
COC(=O)C(C)CN1CN(c2ccc(F)cc2)C2(CCN(C3CCC(C#N)(c4ccc(F)cc4)CC3)CC2)C1=O (single isomer, unassigned) |  |  | 0.001 | < 10 | ED50 (APO)-rat ([2]; Table 2): < 10 mg/kg
CCCCOC(=O)C1(c2ccc(F)cc2)CCC(N2CCC3(CC2)C(=O)NCN3c2ccc(F)cc2)CC1 (centres unmarked) | 0.008 | 10 |  |  | 
CC(C#N)CN1CN(c2ccc(F)cc2)C2(CCN(C3CCC(C#N)(c4ccc(F)cc4)CC3)CC2)C1=O (single isomer, unassigned) |  |  | 0.0005 | 0.31 | ED50 (APO)-rat ([2]; Table 2): 0.16 mg/kg
N#CC1(c2ccccc2)CCC(N2CCC3(CC2)C(=O)NCN3c2ccccc2)CC1 (single isomer, unassigned) | 0.00063 | 0.08 |  |  | ED50 (TRY) [3]: 2.0 mg/kg
N#CC1(c2ccc(F)cc2)CCC(N2CCC3(CC2)C(=O)NCN3c2ccccc2)CC1 (centres unmarked) | 0.0005 | 0.16 |  |  | 
CCCOC(=O)C1(c2ccc(F)cc2)CCC(N2CCC3(CC2)C(=O)NCN3c2ccc(F)cc2)CC1 (centres unmarked) | 0.008 | 5 |  |  | ED50 (TRY) [3]: 10 mg/kg
N#CC1(c2ccc(F)cc2)CCC(N2CCC3(CC2)C(=O)N(Cc2ccccc2)CN3c2ccc(F)cc2)CC1 (centres unmarked) |  |  | 0.008 |  | 
COC1(c2ccc(F)cc2)CCC(N2CCC3(CC2)C(=O)NCN3c2ccc(F)cc2)CC1 (centres unmarked) |  |  |  |  | ED50 (TRY) [3]: 5 mg/kg
CN1CN(c2ccc(F)cc2)C2(CCN(C3CCC(C#N)(c4ccc(F)cc4)CC3)CC2)C1=O (centres unmarked) |  |  | 0.001 | 0.08 | ED50 (APO)-rat ([2]; Table 2): 0.04 mg/kg
CN(C)C(=O)CN1CN(c2ccc(F)cc2)C2(CCN(C3CCC(C#N)(c4ccc(F)cc4)CC3)CC2)C1=O (single isomer, unassigned) |  |  | 0.001 | < 2.5 | ED50 (APO)-rat ([2]; Table 2): < 2.5 mg/kg
COC(=O)CCN1CN(c2ccc(F)cc2)C2(CCN(C3CCC(C#N)(c4ccc(F)cc4)CC3)CC2)C1=O (single isomer, unassigned) |  |  | 0.002 | 10 | 
N#CC1(c2ccc(Cl)cc2)CCC(N2CCC3(CC2)C(=O)NCN3c2ccccc2)CC1 (centres unmarked) | 0.007 | 5.0 |  |  | 
N#CCCN1CN(c2ccc(F)cc2)C2(CCN(C3CCC(C#N)(c4ccc(F)cc4)CC3)CC2)C1=O (centres unmarked) |  |  | 0.0005 |  | ED50 (APO)-rat ([2]; Table 2): 0.16 mg/kg
CCOC(=O)C1(c2ccc(F)cc2)CCC(N2CCC3(CC2)C(=O)NCN3c2ccccc2)CC1 (centres unmarked) | 0.007 |  |  |  | ED50 (TRY) [3]: 2.5 mg/kg
CC(C)N1CN(c2ccc(F)cc2)C2(CCN(C3CCC(C#N)(c4ccc(F)cc4)CC3)CC2)C1=O (centres unmarked) |  |  | 0.001 | < 10 | ED50 (APO)-rat ([2]; Table 2): < 10 mg/kg
CNC(=O)CN1CN(c2ccc(F)cc2)C2(CCN(C3CCC(C#N)(c4ccc(F)cc4)CC3)CC2)C1=O (single isomer, unassigned) |  |  | 0.0016 | 5 | 
COc1ccc(C2(C#N)CCC(N3CCC4(CC3)C(=O)NCN4c3ccccc3)CC2)cc1 (centres unmarked) | 0.002 | 10 |  |  | 
CCOC(=O)C1(c2ccc(F)cc2)CCC(N2CCC(n3c(=O)[nH]c4ccccc43)CC2)CC1 (centres unmarked) |  |  |  |  | ED50 -(APO)-dog ([1]; Table 3, s.c.): 0.04 mg/kg; ED50 -(TRY) ([3]; Table 3): 5 mg/kg
CC(=O)C1(c2ccc(F)cc2)CCC(N2CCC3(CC2)C(=O)NCN3c2ccc(F)cc2)CC1 (centres unmarked) |  | 2.5 |  |  | 
CCOC(=O)C1(c2ccc(F)cc2)CCC(N2CCC3(CC2)C(=O)NCN3c2ccc(F)cc2)CC1 (centres unmarked) | 0.003 | 2.5 |  |  | ED50 (TRY) [3]: 5 mg/kg
COC(=O)CC(C)N1CN(c2ccc(F)cc2)C2(CCN(C3CCC(C#N)(c4ccc(F)cc4)CC3)CC2)C1=O (single isomer, unassigned) |  |  | 0.002 | 10 | ED50 (APO)-rat ([2]; Table 2): 5 mg/kg
N#CC1(c2ccc(F)cc2)CCC(N2CCC3(CC2)C(=O)N(CC(N)=O)CN3c2ccc(F)cc2)CC1 (single isomer, unassigned) |  |  | 0.0009 |  | 
CCOC(=O)C1(c2ccccc2)CCC(N2CCC(n3c(=O)[nH]c4ccccc43)CC2)CC1 (centres unmarked) |  |  |  |  | ED50 -(TRY) ([3]; Table 3): 5 mg/kg; ED50 (APO)-rat ([2]; Table 3): 1.25 mg/kg
CCOC(=O)C1(c2ccccc2)CCC(N2CCC3(CC2)C(=O)NCN3c2ccc(F)cc2)CC1 (centres unmarked) | 0.009 | 1.25 |  |  | ED50 (TRY) [3]: 5 mg/kg
